Laboratory results: paper PMC9826262, “Discovery of Benzo[d]imidazole‐6‐sulfonamides as Bromodomain and Extra‐Terminal Domain (BET) Inhibitors with Selectivity for the First Bromodomain” (Chemmedchem, 2022)

Key:
BRD4 BD1 = molecular target: T1, BRD4 BD1 (Homo sapiens, UniProt O60885); test: Isothermal titration calorimetry; type: binding; conditions: 15 °C; BRD4 BD1 titrated into 25 μM compound; read-out: KD (ITC)
T1 construct: His6 (cleaved yes); made in house; host or cells: E. coli BL21(DE3)-R3-pRARE2
Experimental: To quantify the affinity for BRD4 BD1 protein, isothermal titration calorimetry (ITC) was used.
Isothermal Titration Calorimetry. Experiments were carried out on an ITC200 titration microcalorimeter from MicroCal™, LLC (Northampton, MA) with a cell volume of 0.200 mL and a 40 μL microsyringe. All experiments were carried out at 15 °C while stirring at 750 rpm, in ITC buffer (20 mM HEPES pH 7.5 (at 25 °C), 150 mM NaCl). […] Following baseline equilibration an additional delay of 60 s was applied. All titrations were conducted using an initial injection of 0.3 μL followed by 38 identical injections of 1 μL with a duration of 2 s (per injection) and a spacing of 120 s between injections. The heat of dilution was determined by independent titrations (protein into buffer) and was subtracted from the experimental data. The collected data were implicated in the MicroCal™ Origin software supplied with the instrument to yield enthalpies of binding (ΔH) and binding constants (KB) as previously described by Wiseman and co‐workers.[34] Thermodynamic parameters were calculated (ΔG=ΔH−TΔS=−RTlnKB, where ΔG, ΔH and ΔS are the changes in free energy, enthalpy and entropy of binding respectively). A single binding site model was employed

BRD4(BD2) = molecular target: T2, BRD4(BD2) (Homo sapiens, UniProt O60885); test: TR-FRET displacement binding assay; conditions: AlexaFluor647 derivative of 1
T2 construct: tested on BD1 and BD2 domains (6×His‐tagged) of each BET protein

Kd (BRD4 BD1): 70 nM and 70.4 nM | IC50 (BRD4(BD2)): 2200 ± 1000 nM
SMILES: Cc1cc(-c2nc3cc(S(=O)(=O)Nc4ccccn4)ccc3[nH]2)cc(C)c1O [9 a, 2‐(4‐hydroxy‐3,5‐dimethylphenyl)‐N‐(pyridin‐2‐yl)‐1H‐benzo[d]imidazole‐6‐sulfonamide]

Several values for one entry are separate records, joined by “and”; a condition that tells them apart may be missing. Equal entries are not always repeated.
